The values that follow come from patent publication US20150141411A1, “SUBSTITUTED 3,4-DIHYDRO-2H-PYRIDO[1,2-A]PYRAZINE-1,6-DIONE DERIVATIVES USEFUL FOR THE TREATMENT OF (INTER ALIA) ALZHEIMER'S DISEASE” (Janssen Pharmaceuticals, Inc., priority 2012, published 2015).

Experiment [1] deals with Aβ38. As to the kind of experiment: In vivo efficacy: brain soluble Aβ38 in non-transgenic rodents (MSD electrochemiluminescence multiplex). The settings on record: dose 30 mg/kg oral dosing, brain soluble fraction, animals sacrificed after 4 h. From the text:
To determine whether acute administration of an Aβ38 increasing agents would increase Aβ38 levels in vivo, non-transgenic rodents, e.g. mice or rats were used. Animals treated with the Aβ38 increasing agents were examined and compared to those untreated or treated with vehicle and brain levels of soluble Aβ42, Aβ40, Aβ38, and Aβ37 were quantitated by MSD electrochemiluminescence detection technology. Treatment periods varied from hours (h) to days and were adjusted based on the results of the Aβ38 increase once a time course of onset of effect could be established.
A typical protocol for measuring Aβ38 increase in vivo is shown but it is only one of many variations that could be used to optimize the levels of detectable Aβ. For example, Aβ38 increasing agents were formulated in 20% of Captisol® (a sulfobutyl ether of β-cyclodextrin) in water or 20% hydroxypropyl βcyclodextrin. The Aβ38 increasing agents were administered as a single oral dose or by any acceptable route of administration to overnight fasted animals. After 4 h, the animals were sacrificed and Aβ38 levels were analysed.
Blood was collected by decapitation and exsanguinations in EDTA-treated collection tubes. Blood was centrifuged at 1900 g for 10 minutes (min) at 4° C. and the plasma recovered and flash frozen for later analysis. The brain was removed from the cranium and hindbrain. The cerebellum was removed and the left and right hemisphere were separated. The left hemisphere was stored at −18° C. for quantitative analysis of test compound levels. The right hemisphere was rinsed with phosphate-buffered saline (PBS) buffer and immediately frozen on dry ice and stored at −80° C. until homogenization for biochemical assays.
Mouse brains from non-transgenic animals were resuspended in 8 volumes of 0.4% DEA (diethylamine)/50 mM NaCl containing protease inhibitors (Roche-11873580001 or 04693159001) per gram of tissue, e.g. for 0.158 g brain, add 1.264 ml of 0.4% DEA. All samples were homogenized in the FastPrep-24 system (MP Biomedicals) using lysing matrix D (MPBio #6913-100) at 6 m/s for 20 seconds. […] Nine parts of supernatant were neutralized with 1 part 0.5 M Tris-HCl pH 6.8 and used to quantify Aβ.
To quantify the amount of Aβ42, Aβ40, Aβ38, and Aβ37 in the soluble fraction of the brain homogenates, simultaneous specific detection of Aβ42, Aβ40, Aβ38, and Aβ37 was performed using MSD's electro-chemiluminescence multiplex detection technology. […] Following this incubation and subsequent wash steps the assay was finished by adding read buffer according to the manufacturer's instructions (MesoScale Discovery, Gaitherburg, Md.).
The SULFO-TAG emits light upon electrochemical stimulation initiated at the electrode. MSD Sector instrument SI6000 was used for signal read-out. […]

Experiment [2] relates to Aβ42. The experiment in a line: In vivo efficacy: brain soluble Aβ42 in non-transgenic rodents (ELISA). The note with it: dose 30 mg/kg oral dosing, brain soluble fraction, animals sacrificed after 4 h, untreated animals (Ctrl) set at 100. The text has this:
To determine whether acute administration of an Aβ42 lowering agent would reduce Aβ42 levels in vivo, non-transgenic rodents, e.g. mice or rats were used. Animals treated with the Aβ42 lowering agent were examined and compared to those untreated or treated with vehicle and brain levels of soluble Aβ42 and total Aβ were quantitated by standard techniques, for example, using ELISA. Treatment periods varied from hours (h) to days and were adjusted based on the results of the Aβ42 lowering once a time course of onset of effect could be established.
A typical protocol for measuring Aβ42 lowering in vivo is shown but it is only one of many variations that could be used to optimize the levels of detectable Aβ. […] After 4 h, the animals were sacrificed and Aβ42 levels were analysed.
Blood was collected by decapitation and exsanguinations in EDTA-treated collection tubes. […] The left hemisphere was stored at −18° C. for quantitative analysis of test compound levels. […]
Mouse brains from non-transgenic animals were resuspended in 8 volumes of 0.4% DEA (diethylamine)/50 mM NaCl containing protease inhibitors (Roche-11873580001 or 04693159001) per gram of tissue, e.g. for 0.158 g brain, add 1.264 ml of 0.4% DEA. […] Nine parts of supernatant were neutralized with 1 part 0.5 M Tris-HCl pH 6.8 and used to quantify Aβtotal and Aβ42. […]
(In general: ELISA stands for enzyme-linked immunosorbent assay.)

The mark [3] stands for this setting: untreated animals (Ctrl) set at 100.

Consider `Cc1cn(-c2ccc3n(c2=O)C[C@@H](C)N(CC2(c4cc(C(F)(F)F)cc(C(F)(F)F)c4)CC2)C3=O)cn1`, for which the “Aβ38 (% vs Ctrl)_Mean” value in experiment [1] (untreated animals (Ctrl) set at 100, tested form: HCl) is 153 % vs Ctrl.

As for `Cc1cn(-c2ccc3n(c2=O)CCN(CC2(c4cc(C(F)(F)F)cc(C(F)(F)F)c4)CCC2)C3=O)cn1`, the “Aβ38 (% vs Ctrl)_Mean” value in experiment [1] (setting [3]) stood at 185 % vs Ctrl. Regarding `Cc1cn(-c2ccc3n(c2=O)C[C@H](C)N(Cc2ccc(Cl)c(Cl)c2)C3=O)cn1`, the “Aβ42 (% vs Ctrl)_Mean” value in experiment [2] is listed as 76 % vs Ctrl. Consider `Cc1cn(-c2ccc3n(c2=O)CCN(CC2(c4cc(C(F)(F)F)cc(C(F)(F)F)c4)CC2)C3=O)cn1`, for which the “Aβ38 (% vs Ctrl)_Mean” value in experiment [1] (setting [3]) is on record as 154 % vs Ctrl. Consider `Cc1cn(-c2ccc3n(c2=O)C[C@@H](C)N(C(C)c2cc(Cl)cc(C(F)(F)F)c2)C3=O)cn1` (single isomer, unassigned) [130], for which the “Aβ38 (% vs Ctrl)_Mean” value in experiment [1] (setting [3]) was determined as 182 % vs Ctrl.
